Values quoted from earlier work as cited in patent US10144908B2, “Liquid soap having enhanced antibacterial activity” (Conopco, Inc., priority 2013, dated 2018).

Details: in water at 25° C.

Row | Substance | Ksp [mol/L]
1 | Silver salicylate | 1.5e-05
2 | Silver oxide | 2.1e-08
